Bioassay records as filed in PubChem BioAssay.
KCNH2 3.1 block – qHTS for Inhibitors of KCHN2 3.1: Mutant qHTS; Potassium voltage-gated channel subfamily H member 2, brain isoform KCNH2 3.1 (human); U2OS KCNH2 3.1, thallium flux FluxOr; stronger effect = lower value; activity change, % (tested at about 1.8 µM); 340,000 compounds, 0.95% hits; AID 720553, 2013;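 active = maximum activity change below -70%; inconclusive = maximum activity change from -70% to -50%; inactive = maximum activity change above -50%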;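 also: thallium influx rate constant from kinetic fluorescence after stimulation buffer; % is scaled to controls: 0 for no effect and ±100 for the full control effect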
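FluxOr-based Tl+ influx in U2OS cells transduced with KCNH2 3.1 virus; rate constants normalized to DMSO controls.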
Rango complex inh – qHTS Assay for Inhibitors of Rango (Ran-regulated importin-beta cargo) - Importin beta complex formation; Importin subunit beta-1 (Homo sapiens), Q14974; Rango CFP/YFP FRET sensor + importin beta, 45 min; Potency, µM (titrated, usually from 92.2 µM), for the others: top-dose inhibition of complex formation; 340,000 compounds, 0.031% hits;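 also: potency is read from the fitted curve at half-maximal effect; 0% = DMSO wells and 100% = buffer wells lacking importin beta; nearly all actives have a fitted effect of over 15% in size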
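Inhibition scored from the CFP 486 nm/YFP 530 nm FRET ratio 45 min after adding 0.125 microM importin beta to 50 nM Rango biosensor preincubated 5 min with compound (room temperature, PBS with DTT, Tween-20, BSA). No-importin wells as positive control.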
Rango dissoc inh – qHTS Assay for Inhibitors of RanGTP induced Rango (Ran-regulated importin-beta cargo) - Importin beta complex dissociation; Snurportin-1 (Homo sapiens) + GTP-binding nuclear protein Ran (Homo sapiens) + Importin …; Biochemical FRET Rango-importin beta, RanGTP-induced dissociation; Potency, µM (top dose mostly 46.1 µM), for inactives: at the highest dose activity change, negative = inhibition; 340,000 compounds, 0.071% hits; also: potency is read from the fitted curve at half-maximal effect; % of control where 0% means no effect; nearly all actives have a fitted effect of over 45% in size
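Rango FRET biosensor (snurportin-1 IBB flanked by N-terminal EYFP and C-terminal CFP10) at 0.1 uM, with 0.25 uM importin beta in PBS, 1mM DTT, 0.02% Tween-20, 0.1% BSA. 0.6 uM Ran, 2mM GTP and 0.2 uM RCC1 were then added for 45 min at room temperature. Inhibition read as loss of FRET rise.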
MmCpn inh – Inhibitors of TCP-1 ring complex (TRiC) of Methanococcus maripaludis (MmCpn): qHTS. purified Mm-Cpn ATPase, ADP Transcreener TR-FRET. Potency, µM (top dose mostly 76.9 µM), without a hit: top-dose activity, negative = inhibition, usual class: inhibitors. 330,000 compounds, 0.031% hits. AID 504842, 2011; active = well fitted inhibition curve with a large enough effect; inconclusive = small, poorly fitted or top-dose-only effect; also: potency is read from the fitted curve at half-maximal effect; % is scaled to controls: 0 for no effect and ±100 for the full control effect; nearly all actives have a fitted effect of over 80% in size
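ATPase read-out: TR-FRET ADP immunoassay (anti-ADP Eu cryptate vs ADP-d2), ex 320 nm, em 590/665 nm; signal drops as ADP forms. Enzyme 25 nM, ATP 10 uM, 30 min at 37°C after 10 min compound preincubation.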
CCT chaperon mod – High-Throughput Screening for Modulators of Cytosolic Chaperonin Activity. purified chaperonin ATPase assay, HTRF ADP detection, 30 min. activity change, % (test concentration not listed), hits read low. 360,000 compounds, 0.3% hits. AID 651819, 2012; in the data active = activity change below about -30%; also: % is scaled to controls: 0 for no effect and ±100 for the full control effect
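ATPase activity: ADP formed was measured by HTRF Transcreener (665/615 nm ratio) after 30 min at 37 deg C with 10 uM ATP. Compounds screened at one 76 uM concentration against 40 or 20 nM TRiC in Tris pH 7.4/KCl/MgCl2/DTT buffer.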
KCNH2 WT inh – qHTS for Inhibitors of KCHN2 3.1: Wildtype qHTS; AID 720551, 2013; activity change, % at 1.84 µM; U2OS, BacMam KCNH2, thallium flux FluxOr; stronger effect = lower value; 340,000 compounds, 0.37% hits; Voltage-gated inwardly rectifying potassium channel KCNH2 (Homo sapiens), Q12809;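 active = maximum activity change below -70%; inconclusive = maximum activity change between -70% and -50%; inactive = maximum activity change above -50%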; also: % is scaled to controls: 0 for no effect and ±100 for the full control effect
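U2OS cells transduced with wild-type KCNH2 virus are loaded with FluxOr dye for 45 min, and thallium flux is measured in kinetic reads before and after stimulation buffer. Rate constants are normalized to DMSO controls.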
* marks the source's active call; other numbers are inactive results; ? = inconclusive; · = no result; ! = repeats disagree. The list is not random: actives were taken first. Their share in the collection is about 1.4%. Unless noted, calls follow the shape of the full dose curve.

The chains behind the UniProt entries cited, without tags or fusion partners.
Importin subunit beta-1 (Homo sapiens), Q14974, UniProt Q14974, whole entry, looked up: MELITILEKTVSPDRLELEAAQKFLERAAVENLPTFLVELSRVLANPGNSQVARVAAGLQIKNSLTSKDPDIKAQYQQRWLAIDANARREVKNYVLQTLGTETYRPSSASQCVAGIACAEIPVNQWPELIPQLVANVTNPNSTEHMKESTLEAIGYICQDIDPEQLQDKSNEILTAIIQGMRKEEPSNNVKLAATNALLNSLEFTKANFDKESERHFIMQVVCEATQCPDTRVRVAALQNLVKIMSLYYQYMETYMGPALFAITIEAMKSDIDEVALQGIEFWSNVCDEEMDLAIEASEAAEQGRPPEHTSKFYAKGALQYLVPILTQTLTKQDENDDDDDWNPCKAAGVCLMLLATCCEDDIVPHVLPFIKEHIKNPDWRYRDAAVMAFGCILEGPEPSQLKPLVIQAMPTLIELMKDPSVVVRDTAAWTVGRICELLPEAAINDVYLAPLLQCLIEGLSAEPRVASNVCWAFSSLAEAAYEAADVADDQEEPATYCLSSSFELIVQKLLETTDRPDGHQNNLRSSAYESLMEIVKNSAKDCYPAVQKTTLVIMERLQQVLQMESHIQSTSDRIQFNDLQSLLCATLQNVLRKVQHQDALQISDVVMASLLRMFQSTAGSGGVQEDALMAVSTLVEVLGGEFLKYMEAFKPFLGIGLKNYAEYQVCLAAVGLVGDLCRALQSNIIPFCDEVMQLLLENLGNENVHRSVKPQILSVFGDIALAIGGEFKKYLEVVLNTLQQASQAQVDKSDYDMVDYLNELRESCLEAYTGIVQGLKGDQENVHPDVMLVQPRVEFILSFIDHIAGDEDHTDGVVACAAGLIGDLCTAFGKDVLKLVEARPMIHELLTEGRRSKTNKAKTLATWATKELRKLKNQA

Sample of the layout:
| nr | molecule | CCT chaperon mod | Rango dissoc inh | Rango complex inh |
| --- | --- | --- | --- | --- |
| 1 | COc1ccc(C(=O)N=C2SC3CS(=O)(=O)CC3N2c2ccc(N(C)C)cc2)cc1OC (centres undefined) | -60* | ? | ? |
| 2 | COc1ccc(N2C(=NC(=O)C3CCCCC3)SC3CS(=O)(=O)CC32)cc1OC (centres undefined) | -2 | 9% | -1% |
| 3 | CN(C)c1ccc(N2C(=NC(=O)CCC3CCCC3)SC3CS(=O)(=O)CC32)cc1 (centres undefined) | 1 | -8% | 0% |
| 4 | CC(=O)N1C=Cc2c(c(C)c3c([nH]c4ccccc43)c2C)C1 | · | · | · |

| nr | MmCpn inh | KCNH2 3.1 block | KCNH2 WT inh |
| --- | --- | --- | --- |
| 1 | 0% | 0 | -6 |
| 2 | 3% | -17 | 5 |
| 3 | 1% | -1 | -281* |
| 4 | -3% | · | · |

All compounds of this part, from the start:
| nr | molecule | CCT chaperon mod | Rango dissoc inh | Rango complex inh |
| --- | --- | --- | --- | --- |
| 1 | COc1ccc(C(=O)N=C2SC3CS(=O)(=O)CC3N2c2ccc(N(C)C)cc2)cc1OC (centres undefined) | -60* | ? | ? |
| 2 | COc1ccc(N2C(=NC(=O)C3CCCCC3)SC3CS(=O)(=O)CC32)cc1OC (centres undefined) | -2 | 9% | -1% |
| 3 | CN(C)c1ccc(N2C(=NC(=O)CCC3CCCC3)SC3CS(=O)(=O)CC32)cc1 (centres undefined) | 1 | -8% | 0% |
| 4 | CC(=O)N1C=Cc2c(c(C)c3c([nH]c4ccccc43)c2C)C1 | · | · | · |
| 5 | Cc1ccc(C2C3=C(CCCC3=O)OC3=C2C(=O)CCC3)cc1 | -5 | 8% | 1% |
| 6 | Cc1ccc(C2C3=C(CC(C)(C)CC3=O)OC3=C2C(=O)CC(C)(C)C3)cc1 | -1 | 1% | -1% |
| 7 | CC1(C)C2CCC1(C)C(OC(=O)CSc1nc(N)cc(=O)[nH]1)C2 (centres undefined) | -70* | 11% | -1% |
| 8 | CCC1CCCCN1C(=O)CSc1nc(N)cc(=O)[nH]1 (centres undefined) | -2 | 5% | -2% |

| nr | MmCpn inh | KCNH2 3.1 block | KCNH2 WT inh |
| --- | --- | --- | --- |
| 1 | 0% | 0 | -6 |
| 2 | 3% | -17 | 5 |
| 3 | 1% | -1 | -281* |
| 4 | -3% | · | · |
| 5 | 0% | 3 | 9 |
| 6 | 1% | -85* | 1 |
| 7 | -2% | 14 | -11 |
| 8 | -5% | 11 | -5 |

Further records follow:
| nr | molecule | CCT chaperon mod | Rango dissoc inh | Rango complex inh |
| --- | --- | --- | --- | --- |
| 9 | CCCCCCCCCCOC(=O)Cn1c(COc2ccc(OC)cc2)[n+](C)c2ccccc21 | 1 | 36% | 4% |
| 10 | CCCCCCCCCCOC(=O)Cn1c(COc2ccccc2)[n+](C)c2ccccc21 | -2 | 41% | 9% |
| 11 | CCCCCCCCCCOC(=O)Cn1c(COc2ccccc2C)[n+](C)c2ccccc21 | -3 | 1% | 18% |
| 12 | CCCCCCCCCCOC(=O)Cn1c(COc2cccc(C)c2)[n+](C)c2ccccc21 | 2 | 18% | 4% |
| 13 | COC(OC)C1(CCc2ccccc2)NC(=O)NC1=O (centres undefined) | -3 | -1% | -1% |
| 14 | O=C(CCNC(=O)c1ccccc1Cl)Nc1nc(-c2ccc3ccccc3c2)cs1 | 0 | 4% | 0% |
| 15 | CCOC(=O)C1(CC2CC2)CCN(Cc2ccc(C(=O)OC)cc2)CC1 | -2 | -8% | -3% |
| 16 | CCOC(=O)C1(CCc2ccccc2)CCN(Cc2cc(OC)c(OC)cc2OC)CC1 | -2 | -1% | -3% |

| nr | MmCpn inh | KCNH2 3.1 block | KCNH2 WT inh |
| --- | --- | --- | --- |
| 9 | -1% | -93*! | -116*! |
| 10 | -2% | 3 | -47 |
| 11 | 1% | -81* | ? |
| 12 | 1% | -26 | -20 |
| 13 | · | -1 | 0 |
| 14 | ? | -1 | -8 |
| 15 | -3% | -35 | 38 |
| 16 | 0% | -99* | -11 |

Other structures follow.
| nr | molecule | CCT chaperon mod | Rango dissoc inh | Rango complex inh |
| --- | --- | --- | --- | --- |
| 17 | CCOC(=O)C1(CCc2ccccc2)CCN(Cc2ccccn2)CC1 | 0 | -7% | 0% |
| 18 | CCOC(=O)C1(CCc2ccccc2)CCN(Cc2ccc(C(=O)OC)cc2)CC1 | -1 | 3% | 0% |
| 19 | CCOC(=O)C1(CCc2ccccc2)CCN(C2Cc3ccccc3C2)CC1 | -2 | 5% | 0% |
| 20 | CCOC(=O)C1(CCc2ccccc2)CCN(C(=O)c2occc2C)CC1 | 0 | 1% | -2% |
| 21 | CS(=O)(=O)N1CCC(Oc2ccccc2C(=O)N2CCC[C@H]2CO)CC1 | -2 | -14% | -1% |
| 22 | O=C1C=C(NC2CC2)C2(CCCCC2)O1 | 0 | -3% | -5% |
| 23 | O=C1C=C(NCC2CCCO2)C2(CCCCC2)O1 (centres undefined) | 0 | -3% | -3% |
| 24 | O=C(COC(=O)c1ccc2[nH]c3c(c2c1)CCCC3)Nc1ccccc1 | -1 | ? | ? |

| nr | MmCpn inh | KCNH2 3.1 block | KCNH2 WT inh |
| --- | --- | --- | --- |
| 17 | 5% | -74* | -26 |
| 18 | 1% | -114* | -108* |
| 19 | 2% | -79* | ? |
| 20 | 0% | 1 | 0 |
| 21 | -8% | 27 | 2 |
| 22 | -1% | -2 | 3 |
| 23 | 0% | -79* | -13 |
| 24 | 1% | 0 | -7 |

Further results
| nr | molecule | CCT chaperon mod | Rango dissoc inh | Rango complex inh |
| --- | --- | --- | --- | --- |
| 25 | Cc1cccc(C)c1NC(=O)COC(=O)c1ccc2[nH]c3c(c2c1)CCCC3 | 0 | 23µM* | ? |
| 26 | COCCCNC(=O)c1cc(-c2cccnc2)nc2ccc(S(=O)(=O)N3CCCCCC3)cc12 | -1 | 4% | 0% |
| 27 | CN(CC(=O)Nc1cccc(F)c1)C(=O)C1(c2ccccc2)CC1 | 0 | 0% | 1% |
| 28 | Cc1ccc(S(=O)(=O)Nc2ccccc2CNc2ncc(Br)cc2Br)cc1 | 1 | 12% | -2% |
| 29 | Cc1cc(C)nc(SCc2ccc(C(=O)NN=C3C4CC5CC(C4)CC3C5)cc2)n1 | 0 | -13% | 0% |
| 30 | O=C(NN=C1C2CC3CC(C2)CC1C3)c1ccncc1 | 1 | -26% | ? |
| 31 | CCOc1cccc(CNCc2ccc(C(=O)O)cc2)c1 | -70* | 0% | 1% |
| 32 | O=C(O)c1ccc(CNCc2cccc(Oc3ccccc3)c2)cc1 | -1 | -5% | 1% |

| nr | MmCpn inh | KCNH2 3.1 block | KCNH2 WT inh |
| --- | --- | --- | --- |
| 25 | 0% | -5 | -6 |
| 26 | 1% | 10 | 0 |
| 27 | -4% | 14 | 11 |
| 28 | 0% | -94* | -1 |
| 29 | 1% | 9 | 2 |
| 30 | 0% | 3 | -183* |
| 31 | 0% | -5 | 8 |
| 32 | 1% | 7 | -17 |

Later entries.
| nr | molecule | CCT chaperon mod | Rango dissoc inh | Rango complex inh |
| --- | --- | --- | --- | --- |
| 33 | CCOn1c(=O)c(-c2ccc(C)cc2)[n+]([O-])c2ccccc21 | 0 | 12% | 5% |
| 34 | CCOn1c(=O)c(-c2ccc(Cl)cc2)[n+]([O-])c2ccccc21 | 2 | 4% | 0% |
| 35 | CCOC(=O)n1cc(-c2cnc(CNC(=O)C(C)(c3ccccc3)c3ccccc3)o2)c2ccccc21 | 1 | 8% | 1% |
| 36 | CN1/C(=C\C=C2/SC(=S)NC2=O)C(C)(C)c2ccccc21 | -2 | ? | 23µM* |
| 37 | CCOC(=O)c1nn2c(C(F)(F)F)cc(-c3ccc(OC)cc3)nc2c1Br | -33* | -12% | 0% |
| 38 | CC(=O)c1ccc(OCc2cc(C(=O)N3CCC(c4ccncc4)CC3)no2)cc1 | -49* | -1% | -2% |
| 39 | COc1cccc(OCc2cc(C(=O)N3CCC(c4ccncc4)CC3)no2)c1 | -1 | 1% | 2% |
| 40 | Cc1cc(C)cc(-c2nnc(SCC(=O)NCC3CCCO3)o2)c1 (centres undefined) | -2 | 0% | -1% |

| nr | MmCpn inh | KCNH2 3.1 block | KCNH2 WT inh |
| --- | --- | --- | --- |
| 33 | -1% | -84* | 1 |
| 34 | 2% | -6 | -9 |
| 35 | 1% | -73* | -40 |
| 36 | ? | -13 | -22 |
| 37 | -1% | -5 | 1 |
| 38 | 0% | -11 | -3 |
| 39 | -2% | -6 | -16 |
| 40 | · | -23 | -3 |
